Experimental data reported in PubChem BioAssay AID436 (Emory University Molecular Libraries Screening Center, 2006).
This is a selection; strong and weak results do not stand in their true shares. The source made the active and inactive calls.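 The calls were made as follows: active = activity remaining at or below 50% of control, provided the compound also passes the data quality filters; inactive = the rest, including low values that fail the filters.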

Sequences of proteins named here, by UniProt entry; tags and fusion partners are left off.
UniProt Q92560, whole entry: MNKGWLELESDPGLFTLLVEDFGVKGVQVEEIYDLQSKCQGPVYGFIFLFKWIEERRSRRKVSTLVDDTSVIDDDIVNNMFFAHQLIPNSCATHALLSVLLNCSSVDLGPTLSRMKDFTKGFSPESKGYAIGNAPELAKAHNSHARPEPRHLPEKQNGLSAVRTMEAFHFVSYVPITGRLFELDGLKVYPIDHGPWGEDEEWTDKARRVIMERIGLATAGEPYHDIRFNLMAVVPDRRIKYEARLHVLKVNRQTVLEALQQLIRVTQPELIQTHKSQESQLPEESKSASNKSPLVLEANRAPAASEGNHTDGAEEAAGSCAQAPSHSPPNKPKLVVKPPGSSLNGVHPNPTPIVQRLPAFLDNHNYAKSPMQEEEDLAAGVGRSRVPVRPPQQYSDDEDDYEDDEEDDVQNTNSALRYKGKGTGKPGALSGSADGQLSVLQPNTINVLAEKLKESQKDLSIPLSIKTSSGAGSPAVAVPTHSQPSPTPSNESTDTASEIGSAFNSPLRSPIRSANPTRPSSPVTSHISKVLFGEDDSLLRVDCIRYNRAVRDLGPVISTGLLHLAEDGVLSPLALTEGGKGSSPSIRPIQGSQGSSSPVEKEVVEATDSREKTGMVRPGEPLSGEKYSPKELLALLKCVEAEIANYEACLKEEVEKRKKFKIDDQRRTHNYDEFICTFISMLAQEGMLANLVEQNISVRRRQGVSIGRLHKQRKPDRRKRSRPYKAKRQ

molecular target: Ubiquitin carboxyl-terminal hydrolase BAP1 (Homo sapiens) (UniProt Q92560); assay: BAP1 ubiquitin hydrolase activity blockers – biochemical, Ub-AMC fluorescence, kinetic, primary screen (AID 436); conditions: recombinant BAP1, Ub-AMC hydrolysis fluorescence kinetic; at 20 µM; stronger effect = lower value;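 also: 100% = DMSO wells rate and 0% = substrate alone blank rate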

| SMILES | activity remaining (% of control) |
| --- | --- |
| N/C(=N\O)c1c(N)no[n+]1[O-] | inactive: 95.7% |
| Fc1ccccc1NC1CCN(Cc2ccccc2)CC1 | inactive: 88.8% |
| CCC(CO)(C(=O)OC1CN2CCC1CC2)c1ccccc1 (configuration not stated) | inactive: 96.8% |
| CCOc1ncccc1C(=O)NCC1(N2CCOCC2)CCCCC1 | inactive: 101% |
| O=C(OC1CN2CCC1CC2)C1c2ccccc2Oc2ccccc21 (configuration not stated) | inactive: 84% |
| COc1ccc(NC2CCN(CCc3ccccc3)CC2)c(OC)c1 | inactive: 108% |
| N#CC1(Nc2ccccc2)CCN(CCc2ccccc2)CC1 | inactive: 109% |
